Patent US11835522B2, “Sensors for detecting and imaging of cancer metastasis” (Massachusetts Institute of Technology, priority 2019, dated 2023)

Test system: CRC lung metastases (MMP9-secreting MC26 cells)
Conditions: mouse, in vivo

OC[C@H]1OC(O)[C@H]([18F])[C@@H](O)[C@@H]1O (stereo partly shown) [^18F-FDG, ^18F-2-deoxyfluoroglucose]
heart accumulation / background signal in the chest: strong accumulation in the heart
